PMC5170609 (Molecular Biology of the Cell, 2016)

Biological target: wild-type full-length desmin (recombinant) (UniProt P17661 1-470)
Test: ELISA

B1: His-nebulette amino terminal end through module 6 (recombinant) (domain or fragment)
chain: MRVPVFEDIKDETEEEKIGEEENEEDQVFYKPVIEDLSMELARKCTELISDIRYKEEFKKSKDKCTFVTDSPMLNHVKNIGAFISEAKYKGTIKADLSNSLYKRMPATIDSVFAGEVTQLQSEVAYKQKHDAAKGFSDYAHMKEPPEVKHAMEVNKHQSNISYRKDVQDTHTYSAELDRPDIKMATQISKIISNAEYKKGQGIMNKEPAVIGRPDFEHAVEASKLSSQIKYKEKFDNEMK
Kd: 12 to 19 nM
